The source of these data is PubChem BioAssay AID624467 (The Scripps Research Institute Molecular Screening Center, 2012).

Chains of the proteins cited; added tags and fusions are not shown.
UniProt Q96RJ0, whole entry: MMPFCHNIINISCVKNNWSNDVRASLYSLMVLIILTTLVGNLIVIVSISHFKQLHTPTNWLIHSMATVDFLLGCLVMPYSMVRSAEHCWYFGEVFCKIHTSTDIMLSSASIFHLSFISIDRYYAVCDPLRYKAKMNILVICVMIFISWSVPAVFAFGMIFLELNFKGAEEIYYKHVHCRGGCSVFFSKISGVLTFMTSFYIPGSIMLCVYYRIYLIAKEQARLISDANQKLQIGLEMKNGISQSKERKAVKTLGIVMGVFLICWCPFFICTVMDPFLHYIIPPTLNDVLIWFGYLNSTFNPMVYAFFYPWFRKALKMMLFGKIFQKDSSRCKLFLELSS

The list shows a part of the results, in another mix than the full data. Some tests of the compounds listed are not included; inactive here does not mean inactive elsewhere. Active and inactive are the calls of the source.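 Rule for the calls: active = activation above the mean activation of all test compounds in the run plus 3 SD (cut at about 38% in these data); inactive = the rest.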

In the test the target is Trace amine-associated receptor 1 (Homo sapiens) (UniProt Q96RJ0). Briefly: activators of TAAR1 calcium mobilization – Fluo-8 calcium fluorescence, CHO RD-HGA16 cells, primary screen (AID 624467). The conditions noted are these: CHO RD-HGA16 TAAR1, Fluo-8 calcium fluorescence; at 3 µM; stronger effect = higher value; vehicle wells 0%, saturating PEA agonist 100%. In general terms: Calcium flux is commonly read through the fluorescence of an indicator in the cells.
`O=C(OC1CN2CCC1CC2)C(CO)(c1ccccc1)c1ccccc1` (stereo unspecified): the activation was inactive: 3.07%.

For the molecule `COc1ccc(Br)c(C(=O)NCC2(N3CCCCC3)CCCCC2)c1`, the activation was inactive: -4.14%.

As to `C=C(C)C#CC(O)(C(=O)OC1CCN(C)CC1)c1ccccc1` (stereo unspecified), the activation was inactive: 4.66%. Next, `CN(C)c1cccc(C(=O)NCC2(N(C)C)CCCCC2)c1`: inactive: 1.72%; `O=C(OCCN1CCCC1)C(O)(c1ccccc1)c1ccccc1`: inactive: 2.56%. Under `CC(C)Oc1ccc(C(=O)NCC2(N(C)C)CCCCC2)cc1` stands inactive: 6.32%. Next, `CN(C)C1(CNC(=O)c2ccc(Br)cc2)CCCCC1`: inactive: 6.04%. In the case of `COc1cc(C(=O)NCC2(N(C)C)CCCCC2)c([N+](=O)[O-])cc1OC`, the activation was inactive: 0.28%.

Regarding `COc1ccc(Cl)cc1C(=O)NCC1(N(C)C)CCCCC1`, the activation was inactive: 0.62%.

`COc1cccc(C(=O)NCC2(N3CCCCC3)CCCCC2)c1`: the activation was inactive: 0.04%. In the case of `O=C(NCC1(N2CCCCC2)CCCCC1)c1cccc(Cl)c1`, the activation is inactive: -0.82%.

For `CN(C)c1ccc(C(=O)NCC2(N(C)C)CCCCC2)cc1`, the activation is inactive: 8.65%.

With `CN(C)C1CCCC1OC(=O)C(O)(c1ccccc1)c1ccccc1` (stereo unspecified), the activation was inactive: 2.13%.

Consider `Cc1ccccc1C(=O)NCC1(N2CCCCC2)CCCCC1`, for which the activation was inactive: 8.78%. Next, `O=C(NCC1(N2CCCCC2)CCCCC1)c1cc(F)c(F)cc1Cl`: inactive: -0.17%; `C=CCN1CCN(CCOC(=O)C(O)(c2ccccc2)c2ccccc2)CC1`: inactive: 3%. Under `O=C(NCC1(N2CCCCC2)CCCCC1)c1cccc(Br)c1` stands inactive: 0.66%; under `CCN1CCCC(OC(=O)C2(O)c3ccccc3C=Cc3ccccc32)C1` (stereo unspecified), inactive: 4.94%; under `Cc1cc(C(=O)NCC2(N3CCCCC3)CCCCC2)ccc1[N+](=O)[O-]`, inactive: 14.2%. With `COc1ccc(C(=O)NCC2(N(C)C)CCCCC2)cc1`, the activation is inactive: 0.14%. Under `O=C(NCC1(N2CCCCC2)CCCCC1)c1cc([N+](=O)[O-])ccc1Cl` stands inactive: -0.98%; under `CN1[C@@H]2CC[C@H]1CC(OC(=O)C(O)(c1ccccc1)c1ccccc1)C2` (stereo partly specified), inactive: 3.19%.

For `CC(C)N1C(=O)CC2(CCN(CCOC(=O)C(O)(c3ccccc3)c3ccccc3)CC2)C1=O`, the activation is inactive: 5.84%.

Consider `COc1cc(SC)ccc1C(=O)NCC1(N(C)C)CCCCC1`, for which the activation is inactive: -0.67%.

On to `CCN(CC)CC(C)C(C)OC(=O)C(O)(c1ccccc1)c1ccccc1` (stereo unspecified), for which the activation is inactive: -0.12%. As for `Cc1ccc(C(=O)NCC2(N3CCCCC3)CCCCC2)cc1`, the activation is inactive: 4.69%.
